Source: US20160158215A1, “TRANSORAL DOSAGE FORMS […] NALOXONE” (published 2016)

Experiments:
[1] = Saturation concentration of stock solutions in pH 5 citric acid buffer; details: equilibrated overnight @ 37° C.
[2] = Absorption rate constant (Ka) estimated from in vitro flux data by Wagner-Nelson method; details: log slope of cumulative % unabsorbed vs. time, in vitro data of Example 2 over 4 hour period
[3] = used in the predictive modelling; cited from earlier work
[4] = free base; cited from earlier work
pig buccal mucosa = experiment: In vitro permeation (buccal flux) through pig buccal mucosal tissue, modified Franz cell

## CCC(=O)N(c1ccccc1)C1CCN(CCc2ccccc2)CC1
[1]
  solution concentration of drug estimated to be at saturation: 17.35 mg/mL
[2]
  Ka (absorption rate constant) estimated from in vitro flux data: 0.553 h⁻¹

## CCC(=O)N(c1ccccc1)C1(COC)CCN(CCc2cccs2)CC1
[3]
  Alpha (disposition parameter): 1.73 h⁻¹
  Beta (disposition parameter): 0.1447 h⁻¹
  K21 (disposition parameter): 0.2414 h⁻¹
  V1 (disposition parameter): 144,586.1 milliliters
[4]
  solubility in aqueous fluids: very low solubility
[1]
  solution concentration of drug estimated to be at saturation: 4.76 mg/mL
[2]
  Ka (absorption rate constant) estimated from in vitro flux data: 0.555 h⁻¹
Pig buccal mucosa; Example 2, donor pH 5.0, 37° C., 0.5 h
  Mean (±SD) Cumulative Amount Permeated through pig buccal mucosa: 0.0 ± 0.0 ug/cm^2
Pig buccal mucosa; Example 2, donor pH 5.0, 37° C., 1 h
  Mean (±SD) Cumulative Amount Permeated through pig buccal mucosa: 0.0 ± 0.0 ug/cm^2
Pig buccal mucosa; Example 2, donor pH 5.0, 37° C., 1.5 h
  Mean (±SD) Cumulative Amount Permeated through pig buccal mucosa: 0.5 ± 0.6 ug/cm^2
Pig buccal mucosa; Example 2, donor pH 5.0, 37° C., 2 h
  Mean (±SD) Cumulative Amount Permeated through pig buccal mucosa: 1.6 ± 1.3 ug/cm^2
Pig buccal mucosa; Example 2, donor pH 5.0, 37° C., 2.5 h
  Mean (±SD) Cumulative Amount Permeated through pig buccal mucosa: 3.7 ± 2.6 ug/cm^2
Pig buccal mucosa; Example 2, donor pH 5.0, 37° C., 3 h
  Mean (±SD) Cumulative Amount Permeated through pig buccal mucosa: 6.5 ± 4.1 ug/cm^2
Pig buccal mucosa; Example 2, donor pH 5.0, 37° C., 3.5 h
  Mean (±SD) Cumulative Amount Permeated through pig buccal mucosa: 9.9 ± 5.7 ug/cm^2
Pig buccal mucosa; Example 2, donor pH 5.0, 37° C., 4 h
  Mean (±SD) Cumulative Amount Permeated through pig buccal mucosa: 14.2 ± 7.7 ug/cm^2
Pig buccal mucosa; Example 3 (different tissue samples), donor pH 5.0, 37° C., 0.5 h
  Mean (±SD) Cumulative Amount Permeated through pig buccal mucosa: 0.2 ± 0.3 ug/cm^2
Pig buccal mucosa; Example 3 (different tissue samples), donor pH 5.0, 37° C., 1 h
  Mean (±SD) Cumulative Amount Permeated through pig buccal mucosa: 0.2 ± 0.3 ug/cm^2
Pig buccal mucosa; Example 3 (different tissue samples), donor pH 5.0, 37° C., 1.5 h
  Mean (±SD) Cumulative Amount Permeated through pig buccal mucosa: 0.3 ± 0.3 ug/cm^2
Pig buccal mucosa; Example 3 (different tissue samples), donor pH 5.0, 37° C., 2 h
  Mean (±SD) Cumulative Amount Permeated through pig buccal mucosa: 0.8 ± 0.5 ug/cm^2
Pig buccal mucosa; Example 3 (different tissue samples), donor pH 5.0, 37° C., 2.5 h
  Mean (±SD) Cumulative Amount Permeated through pig buccal mucosa: 1.9 ± 1.2 ug/cm^2
Pig buccal mucosa; Example 3 (different tissue samples), donor pH 5.0, 37° C., 3 h
  Mean (±SD) Cumulative Amount Permeated through pig buccal mucosa: 3.4 ± 2.0 ug/cm^2
Pig buccal mucosa; Example 3 (different tissue samples), donor pH 5.0, 37° C., 3.5 h
  Mean (±SD) Cumulative Amount Permeated through pig buccal mucosa: 5.6 ± 2.9 ug/cm^2
Pig buccal mucosa; Example 3 (different tissue samples), donor pH 5.0, 37° C., 4 h
  Mean (±SD) Cumulative Amount Permeated through pig buccal mucosa: 8.3 ± 3.9 ug/cm^2
Pig buccal mucosa; Example 4 (different tissue samples), donor pH 5.0, 37° C., 0.5 h
  Mean (±SD) Cumulative Amount Permeated through pig buccal mucosa: 0.2 ± 0.3 ug/cm^2
Pig buccal mucosa; Example 4 (different tissue samples), donor pH 5.0, 37° C., 1 h
  Mean (±SD) Cumulative Amount Permeated through pig buccal mucosa: 0.6 ± 0.3 ug/cm^2
Pig buccal mucosa; Example 4 (different tissue samples), donor pH 5.0, 37° C., 1.5 h
  Mean (±SD) Cumulative Amount Permeated through pig buccal mucosa: 2.3 ± 1.7 ug/cm^2
Pig buccal mucosa; Example 4 (different tissue samples), donor pH 5.0, 37° C., 2 h
  Mean (±SD) Cumulative Amount Permeated through pig buccal mucosa: 5.0 ± 3.8 ug/cm^2
Pig buccal mucosa; Example 4 (different tissue samples), donor pH 5.0, 37° C., 2.5 h
  Mean (±SD) Cumulative Amount Permeated through pig buccal mucosa: 9.5 ± 7.2 ug/cm^2
Pig buccal mucosa; Example 4 (different tissue samples), donor pH 5.0, 37° C., 3 h
  Mean (±SD) Cumulative Amount Permeated through pig buccal mucosa: 14.9 ± 10.7 ug/cm^2
Pig buccal mucosa; Example 4 (different tissue samples), donor pH 5.0, 37° C., 3.5 h
  Mean (±SD) Cumulative Amount Permeated through pig buccal mucosa: 20.6 ± 14.1 ug/cm^2
Pig buccal mucosa; Example 4 (different tissue samples), donor pH 5.0, 37° C., 4 h
  Mean (±SD) Cumulative Amount Permeated through pig buccal mucosa: 25.8 ± 16.7 ug/cm^2
Pig buccal mucosa; Table 4, donor solution pH 6.5, 37° C., 0.5 h
  Mean (±SD) Cumulative Amount Permeated through pig buccal mucosa: 0.0 ± 0.0 ug/cm^2
Pig buccal mucosa; Table 4, donor solution pH 6.5, 37° C., 1 h
  Mean (±SD) Cumulative Amount Permeated through pig buccal mucosa: 0.0 ± 0.0 ug/cm^2
Pig buccal mucosa; Table 4, donor solution pH 6.5, 37° C., 1.5 h
  Mean (±SD) Cumulative Amount Permeated through pig buccal mucosa: 0.1 ± 0.2 ug/cm^2
Pig buccal mucosa; Table 4, donor solution pH 6.5, 37° C., 2 h
  Mean (±SD) Cumulative Amount Permeated through pig buccal mucosa: 0.3 ± 0.6 ug/cm^2
Pig buccal mucosa; Table 4, donor solution pH 6.5, 37° C., 2.5 h
  Mean (±SD) Cumulative Amount Permeated through pig buccal mucosa: 0.8 ± 1.1 ug/cm^2
Pig buccal mucosa; Table 4, donor solution pH 6.5, 37° C., 3 h
  Mean (±SD) Cumulative Amount Permeated through pig buccal mucosa: 1.3 ± 1.8 ug/cm^2
Pig buccal mucosa; Table 4, donor solution pH 6.5, 37° C., 3.5 h
  Mean (±SD) Cumulative Amount Permeated through pig buccal mucosa: 2.1 ± 2.5 ug/cm^2
Pig buccal mucosa; Table 4, donor solution pH 6.5, 37° C., 4 h
  Mean (±SD) Cumulative Amount Permeated through pig buccal mucosa: 3.0 ± 3.2 ug/cm^2

This is a selection: effects in other tests are not listed, and their absence says nothing.
